Melting point values, as collected for the OPERA models

From the experimental data distributed with OPERA 2.9.

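The OPERA project collected these measurements from public sources as training and test data for property models. The files give a single number for a compound and property, which may rest on several reports. Conditions of the individual experiments are not part of the data. Where a salt, mixture or single isomer is drawn, the source does not say that exactly this form was tested. Some entries may be limits or estimates that an upstream database listed as plain numbers.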

The melting point is given in degrees Celsius.

compound	MP (°C)
Cc1ccc(Cl)c(OC(C)C(=O)O)c1 (stereo not given)	138
O=C(O)CCc1n[nH]c(=S)[nH]c1=O	163
CCOc1ccc(C(C)=O)cc1CCl	81
ClCc1nc(Cl)c2c3c(sc2n1)CCCC3	90
Nc1ccccc1C(=O)NCC1CCCO1 (stereo not given)	79
COc1ccc(C(=O)CCl)c(OC)c1	49
CCOc1ccc(C2(C)N=C(O)N=C2O)cc1 (stereo not given)	191
O=C(O)c1cc(N2CCOCC2)ccn1	258
CCOC(=O)c1c(C)n(CC)c2ccc(O)cc12	184
CNCc1cccc(O)c1	145
NC(=S)COc1ccc(F)cc1	121
NNC(=O)c1cc(-c2ccncc2)nc2ccccc12	227
COc1ccc(F)c(F)c1C#N	80.5
O=C(O)C1(c2cccc(F)c2)CCC1	68
O=C(c1ccc(F)cc1)N1CCNCC1	75
O=C(CBr)c1ccc2c(c1)CCO2	73
CCOC(=O)c1c(N)sc2ccccc12	106
Cc1nc(C)c(-c2csc(N)n2)s1	126
CC1CC(=O)OC(=O)C1	45.5
O=C(O)CCC(=O)c1ccc2ccccc2c1	173
O=C(O)c1ccc(-c2ccccc2Cl)o1	211
Nc1nnc(C23CC4CC(CC(C4)C2)C3)s1	198
Cc1cccc(-n2[nH]nnc2=S)c1	157
O=Cc1sc(Nc2ccccc2)nc1Cl	165
CN(C1CCCCC1)S(=O)(=O)c1ccccc1/N=N/c1c(N)ccc2cc(S(=O)(=O)[O-])cc(O)c12.[Na+]	298
CCCS(=O)(=O)Nc1ccc(F)c(C(=O)c2c[nH]c3ncc(-c4ccc(Cl)cc4)cc23)c1F	272
CC(=O)c1ccc(S(=O)(=O)N2CCOCC2)cc1	162
Cc1cc(C(=O)O)no1	200
CN(C)S(=O)(=O)c1ccc(NCCO)c(C(=O)O)c1	177
O=C(O)c1cc2c([nH]c1=O)CCC2	274
Cc1ccc2oc(-c3ccc(C=Cc4ccc(-c5nc6cc(C)ccc6o5)cc4)cc3)nc2c1	282
CC(=O)OC(OC(C)=O)c1ccc(S(=O)(=O)Cl)cc1	110
COc1cccc(N2CC(C(=O)O)CC2=O)c1 (stereo not given)	167
CO/N=C(\C(=O)Sc1nc2ccccc2s1)c1csc(N)n1	128.7
O=S(=O)(Cl)c1ccc(C2CCCCC2)cc1	50
Cc1ccc(S(=O)(=O)N2CCCCC2)cc1N	108
Cc1c(I)cccc1[N+](=O)[O-]	35
O=C(O)c1ccccc1-c1nc2ccccc2s1	191
NC(=S)NCc1ccc(F)cc1	120
Cc1ccc(NC(=O)CCl)c(C)c1	154
O=C(C1Cc2ccccc2CN1)N1CCCC1 (stereo not given)	89
O=C(CCCCl)c1ccc(O)cc1	112.5
O=C(O)Cc1cccc2cccnc12	131
Nc1cccc(S(=O)(=O)Nc2ccccc2)c1	128
c1ccc(Nc2nc3ccccc3s2)cc1	140
O=C1N=c2ccc(Br)cc2=C1NO	269
Cc1cc(Br)cc(C)c1C(=O)O	185
Cc1cc(C=O)c(C)n1-c1ccc(Cl)cc1	124
O=C(NC1CC1)c1ccc(Cl)c([N+](=O)[O-])c1	131
O=S1(=O)CCC(S(=O)(=O)Cl)C1 (stereo not given)	115
CN(C)C(=O)c1cccc(N)c1	85
O=S(=O)(O)c1cccc2c(S(=O)(=O)O)cccc12	242.5
FC(F)(F)C(F)(F)C(F)(F)C(F)(F)C(F)(F)C(F)(F)C(F)(F)C(F)(F)CC[n+]1ccccc1.[I-]	197
COc1c(F)cc(F)cc1C#N	34.5